The results in this text go back to BindingDB's records for 34648286, “Structure-Activity Relationship of USP5 Inhibitors” (2021).

Amino acid sequences for entries named in this document (tags omitted). A change or cut given only in a name is not applied to a line headed by its entry.
UniProt Q9UBN7: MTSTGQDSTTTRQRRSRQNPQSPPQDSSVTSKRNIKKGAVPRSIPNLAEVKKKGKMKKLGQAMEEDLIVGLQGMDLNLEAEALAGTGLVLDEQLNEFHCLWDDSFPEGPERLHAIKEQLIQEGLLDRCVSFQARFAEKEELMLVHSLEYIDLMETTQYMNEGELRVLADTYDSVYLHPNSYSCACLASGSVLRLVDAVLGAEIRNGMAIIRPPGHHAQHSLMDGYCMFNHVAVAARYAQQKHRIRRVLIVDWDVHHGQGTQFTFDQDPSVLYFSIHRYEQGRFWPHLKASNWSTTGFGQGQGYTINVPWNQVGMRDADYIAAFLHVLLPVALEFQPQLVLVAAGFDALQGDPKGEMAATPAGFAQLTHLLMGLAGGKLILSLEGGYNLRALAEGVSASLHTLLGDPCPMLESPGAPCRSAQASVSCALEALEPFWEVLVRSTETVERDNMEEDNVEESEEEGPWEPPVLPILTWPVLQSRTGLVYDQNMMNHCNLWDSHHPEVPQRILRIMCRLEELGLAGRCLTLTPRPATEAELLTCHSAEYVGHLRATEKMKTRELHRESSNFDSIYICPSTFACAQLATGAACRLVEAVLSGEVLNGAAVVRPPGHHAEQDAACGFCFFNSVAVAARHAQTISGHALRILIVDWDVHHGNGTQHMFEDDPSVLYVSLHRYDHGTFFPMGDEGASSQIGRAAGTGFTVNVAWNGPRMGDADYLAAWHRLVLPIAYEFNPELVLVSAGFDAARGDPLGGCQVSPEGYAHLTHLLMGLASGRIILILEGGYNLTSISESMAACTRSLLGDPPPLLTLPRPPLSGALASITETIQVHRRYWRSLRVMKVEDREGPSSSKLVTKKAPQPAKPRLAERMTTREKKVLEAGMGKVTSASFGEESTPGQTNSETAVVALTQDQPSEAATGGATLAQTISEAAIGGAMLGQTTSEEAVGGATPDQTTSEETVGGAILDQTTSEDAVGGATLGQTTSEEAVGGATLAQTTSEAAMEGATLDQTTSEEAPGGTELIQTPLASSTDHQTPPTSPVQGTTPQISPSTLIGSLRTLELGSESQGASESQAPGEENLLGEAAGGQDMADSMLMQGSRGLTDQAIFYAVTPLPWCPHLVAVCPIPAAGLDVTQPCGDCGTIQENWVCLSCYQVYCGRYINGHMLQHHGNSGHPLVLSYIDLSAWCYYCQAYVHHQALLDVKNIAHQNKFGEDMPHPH

The term Kd denotes the equilibrium constant for the complex coming apart. High values mean lower affinity, low ones higher affinity.

Molecules are shown by their SMILES.

For the assay, the target named is Histone deacetylase 6 (Homo sapiens, UniProt Q9UBN7).

The molecule `O=C(O)CNC(=O)c1ccc(S(=O)(=O)N2CCC(N3C(=O)Cc4ccccc43)CC2)cc1` returned a Kd above 480 µM.
